Results published in article PMC3794980, “Identification of Conserved and HLA Promiscuous DENV3 T-Cell Epitopes” (PLoS Neglected Tropical Diseases, 2013).
Read-outs that look alike come from different tables or passages of the source.

Protein sequences, listed by entry. Tags and fused reporters are not part of them. Residues count along the entry.
UniProt Q30154, 30-266: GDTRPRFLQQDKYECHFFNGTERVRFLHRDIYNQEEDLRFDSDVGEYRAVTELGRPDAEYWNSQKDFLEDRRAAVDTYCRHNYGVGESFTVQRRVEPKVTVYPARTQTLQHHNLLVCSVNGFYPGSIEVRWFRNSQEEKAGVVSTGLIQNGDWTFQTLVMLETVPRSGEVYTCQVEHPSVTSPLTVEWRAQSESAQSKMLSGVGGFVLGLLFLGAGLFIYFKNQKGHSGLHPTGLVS

Key:
Assay in all cases: biochemical
Type in all cases: binding
[1] = biological target: DRB5*0101 (Homo sapiens, UniProt P01903+Q30154)
[2] = biological target: DRB1*0101 (Homo sapiens, UniProt P01903+P01911, A100R/D57E/F55L/F60I/F76Y/I96L/L162R/M171V/P40L/Q125E/R42F/V115G/Y59C)
[3] = biological target: DRB1*0301 (Homo sapiens, UniProt P01903+P01911, A100K/A102G/A103R/A169T/F55Y/I96L/K41T/L162R/M171V/P40S/Q125H/Q178H/Q39Y/R42S/S66N/T106N/T262R/W38E/Y61H)
[4] = biological target: DRB1*0401 (Homo sapiens, UniProt P01903+P01911, A100K/A169T/F76Y/I96L/K127E/L162R/M171V/N62H/P40V/Q125Y/R42H/S133A/S149N/S66Y/V115G/V209L/W38E)
[5] = biological target: DRB1*0404 (Homo sapiens, UniProt P01903+P01911, A100R/A169T/F76Y/I96L/K127E/L162R/M171V/N62H/P40V/Q125Y/R42H/S133A/S149N/S66Y/V209L/W38E)
[6] = biological target: DRB1*0405 (Homo sapiens, UniProt P01903+P01911, A100R/A169T/D86S/F76Y/I96L/K127E/L162R/M171V/N62H/P40V/Q125Y/R42H/S133A/S149N/S66Y/V115G/V209L/W38E)
[7] = biological target: DRB1*0701 (Homo sapiens, UniProt P01903+P01911, A100R/A102G/A103Q/D57E/D86V/E43K/F76Y/K127E/L162R/M171V/P40G/Q125H/Q99D/R33Q/R42Y/R54Q/S133A/S66F/T210M/V115G/Y107V/Y59L/Y89S)
[8] = biological target: DRB1*0802 (Homo sapiens, UniProt P01903+P01911, A100R/A103L/A169T/F76Y/H45Y/I96F/K41T/L162R/M171V/P40S/Q125H/Q178H/Q39Y/Q99D/R218S/R42G/S66Y/V115G/W38E)
[9] = biological target: DRB1*0901 (Homo sapiens, UniProt P01903+P01911, A100R/A103E/D57H/D86V/F55Y/F60I/F76Y/I96F/K127E/L162R/M171V/P40D/Q125H/Q99R/R33Q/R42F/S133A/S66N/T210M/V115G/W38K/Y107V/Y59G/Y89S)
[10] = biological target: DRB1*1101 (Homo sapiens, UniProt P01903+P01911, A100R/A169T/A87E/I96F/K41T/L162R/M171V/P40S/Q125H/Q178H/Q39Y/Q99D/R42S/S66Y/T262R/V115G/W38E)
[11] = biological target: DRB1*1302 (Homo sapiens, UniProt P01903+P01911, A100E/A169T/K41T/L162R/M171V/P40S/Q125H/Q178H/Q39Y/Q99D/R42S/S66N/T262R/V115G/W38E/Y61H)
[12] = biological target: DRB1*1501 (Homo sapiens, UniProt P01903+P01911)
[13] = biological target: DRB4*0101 (Homo sapiens, UniProt P01903+P13762, G164S); conditions: read-out: Binding Affinity (nM) DRB4*0101
[14] = read-out: Binding Affinity (nM) DRB5*0101
[15] = read-out: Binding Affinity (nM) DRB1*0404
[16] = competitive inhibition of radiolabeled standard peptide, '-' distinct from ND, read-out: Binding Affinity (nM) DRB1*0901
[17] = competitive inhibition of radiolabeled standard peptide, '-' distinct from ND, read-out: Binding Affinity (nM) DRB1*1302
[18] = read-out: Binding Affinity (nM) DRB1*0401
[19] = read-out: Binding Affinity (nM) DRB1*0101
[20] = read-out: Binding Affinity (nM) DRB1*0802
[21] = read-out: Binding Affinity (nM) DRB1*0405

Structure (SMILES) | IC50 [1, 14] | IC50 [2] | IC50 [3] | IC50 [6] | IC50 [7] | IC50 [8] | IC50 [12] | IC50 [9] | IC50 [10] | IC50 [5] | also measured
CC(C)C[C@H](NC(=O)[C@@H](NC(=O)CNC(=O)[C@H](CC(N)=O)NC(=O)[C@H](CO)NC(=O)[C@H](Cc1c[nH]c2ccccc12)NC(=O)[C@H](CC(C)C)NC(=O)[C@@H](NC(=O)[C@H](Cc1c[nH]cn1)NC(=O)[C@H](CO)NC(=O)[C@H](CCCCN)NC(=O)[C@@H]1CCCN1C(=O)[C@@H](N)Cc1c[nH]c2ccccc12)[C@@H](C)O)C(C)C)C(=O)N[C@@H](CCC(=O)O)C(=O)N[C@@H](CO)C(=O)O [NS1 225-239] | > 20000 nM |  |  |  |  |  |  |  |  |  | 
CC[C@H](C)[C@H](NC(=O)[C@@H](NC(=O)[C@H](CCSC)NC(=O)[C@H](CC(=O)O)NC(=O)[C@H](CO)NC(=O)[C@H](CCC(=O)O)NC(=O)[C@H](CC(C)C)NC(=O)[C@@H](NC(=O)CNC(=O)[C@H](CC(N)=O)NC(=O)[C@H](CO)NC(=O)[C@H](Cc1c[nH]c2ccccc12)NC(=O)[C@H](CC(C)C)NC(=O)[C@@H](NC(=O)[C@@H](N)Cc1c[nH]cn1)[C@@H](C)O)C(C)C)[C@@H](C)CC)C(=O)O [NS1 229-243] | > 20000 nM | 10700 nM | 170 nM | 7660 nM | 7630 nM | 3790 nM | 8.96 µM |  |  |  | IC50 [4]: 178 nM; IC50 [5, 15]: > 20000 nM; IC50 [9, 16]: 15400 nM; IC50 ([10]; read-out: Binding Affinity (nM) DRB1*1101): > 20000 nM; IC50 [11, 17]: 1000 nM
CC(C)C[C@H](NC(=O)[C@H](CCC(=O)O)NC(=O)[C@H](CC(C)C)NC(=O)[C@H](CCCCN)NC(=O)CNC(=O)[C@H](CC(C)C)NC(=O)[C@H](Cc1c[nH]cn1)NC(=O)[C@H](Cc1c[nH]c2ccccc12)NC(=O)[C@@H]1CCCN1C(=O)CNC(=O)[C@H](C)NC(=O)[C@@H](NC(=O)[C@H](CCC(N)=O)NC(=O)[C@@H](NC(=O)[C@@H](N)Cc1c[nH]cn1)[C@@H](C)O)[C@@H](C)O)C(=O)O [NS1 261-275] |  |  |  | 18700 nM | 7940 nM |  | 5.92 µM | 5830 nM | 7450 nM |  | IC50 [4, 18]: > 20000 nM; IC50 [1]: 14500 nM
CC[C@H](C)[C@H](NC(=O)[C@@H](NC(=O)[C@H](CC(C)C)NC(=O)[C@H](CC(N)=O)NC(=O)[C@H](CCCNC(=N)N)NC(=O)[C@H](CCCCN)NC(=O)[C@H](CCCCN)NC(=O)[C@H](Cc1ccccc1)NC(=O)[C@H](CCSC)NC(=O)[C@H](CCC(=O)O)NC(=O)[C@@H](N)CCC(=O)O)[C@@H](C)O)C(=O)N[C@@H](CCSC)C(=O)N[C@@H](CC(=O)O)C(=O)N[C@@H](CC(C)C)C(=O)N[C@@H](Cc1c[nH]cn1)C(=O)O [NS3 181-195] | > 20000 nM |  | 15200 nM | 7490 nM | 6260 nM |  | 0.891 µM |  | 336 nM | 7810 nM | IC50 [2, 19]: > 20000 nM; IC50 [4]: 12600 nM; IC50 [8, 20]: > 20000 nM; IC50 [9, 16]: 10100 nM; IC50 [11, 17]: 9320 nM
CC[C@H](C)[C@H](NC(=O)[C@H](C)NC(=O)[C@H](CCC(=O)O)NC(=O)[C@H](CCCNC(=N)N)NC(=O)[C@@H](N)C(C)C)C(=O)N[C@@H](CCCCN)C(=O)N[C@@H](CCCNC(=N)N)C(=O)N[C@@H](CCCNC(=N)N)C(=O)N[C@@H](CC(C)C)C(=O)N[C@@H](CCCNC(=N)N)C(=O)N[C@H](C(=O)N[C@@H](CC(C)C)C(=O)N[C@H](C(=O)N[C@@H](CC(C)C)C(=O)N[C@@H](C)C(=O)O)[C@@H](C)CC)[C@@H](C)O [NS3 209-223] |  | 4210 nM | 12800 nM |  | 1860 nM | 12400 nM |  | 7310 nM |  | 2540 nM | IC50 [11]: 3280 nM; IC50 [1]: 1640 nM
CC[C@H](C)[C@H](NC(=O)[C@H](Cc1c[nH]c2ccccc12)NC(=O)[C@H](CCC(=O)O)NC(=O)[C@H](CC(N)=O)NC(=O)CNC(=O)[C@H](CO)NC(=O)[C@H](CC(N)=O)NC(=O)[C@@H](N)Cc1c[nH]c2ccccc12)C(=O)N[C@H](C(=O)N[C@@H](CC(=O)O)C(=O)N[C@@H](Cc1ccccc1)C(=O)N[C@@H](C)C(=O)NCC(=O)N[C@@H](CCCCN)C(=O)N[C@H](C(=O)O)[C@@H](C)O)[C@@H](C)O [NS3 345-359] | > 20000 nM | 1760 nM | 2620 nM | 5340 nM | 8130 nM |  | 5.32 µM | 10900 nM | 10100 nM |  | 
C[C@@H](O)[C@H](NC(=O)[C@H](CO)NC(=O)[C@H](CO)NC(=O)[C@H](Cc1c[nH]cn1)NC(=O)[C@H](CCC(=O)O)NC(=O)[C@H](CCC(=O)O)NC(=O)[C@@H](N)CCCCN)C(=O)N[C@@H](Cc1c[nH]c2ccccc12)C(=O)N[C@@H](Cc1c[nH]cn1)C(=O)N[C@@H](Cc1ccc(O)cc1)C(=O)N[C@@H](CC(=O)O)C(=O)N[C@@H](CC(=O)O)C(=O)N[C@@H](CCC(=O)O)C(=O)N[C@@H](CC(N)=O)C(=O)N1CCC[C@H]1C(=O)N[C@@H](Cc1ccc(O)cc1)C(=O)N[C@@H](CCCCN)C(=O)O [NS5 284-300] | > 20000 nM |  |  |  |  |  |  |  |  |  | 
C[C@H](NC(=O)[C@H](Cc1c[nH]c2ccccc12)NC(=O)[C@@H](NC(=O)[C@H](CCCCN)NC(=O)[C@H](Cc1ccc(O)cc1)NC(=O)[C@@H]1CCCN1C(=O)[C@H](CC(N)=O)NC(=O)[C@H](CCC(=O)O)NC(=O)[C@H](CC(=O)O)NC(=O)[C@H](CC(=O)O)NC(=O)[C@H](Cc1ccc(O)cc1)NC(=O)[C@H](Cc1c[nH]cn1)NC(=O)[C@H](Cc1c[nH]c2ccccc12)NC(=O)[C@@H](N)[C@@H](C)O)[C@@H](C)O)C(=O)N[C@@H](Cc1ccc(O)cc1)C(=O)N[C@@H](Cc1c[nH]cn1)C(=O)NCC(=O)O [NS5 290-306] | > 20000 nM | 299 nM | 27 nM |  | 2700 nM | 1390 nM | 4.91 µM | 2990 nM | 3900 nM | 16200 nM | IC50 [6, 21]: > 20000 nM; IC50 [11]: 2900 nM
CC[C@H](C)[C@H](NC(=O)[C@H](CCCCN)NC(=O)[C@H](CCCCN)NC(=O)[C@H](CCC(=O)O)NC(=O)[C@H](CC(C)C)NC(=O)[C@@H]1CCCN1C(=O)[C@H](Cc1c[nH]cn1)NC(=O)[C@@H]1CCCN1C(=O)[C@H](CC(N)=O)NC(=O)[C@H](CCC(=O)O)NC(=O)[C@H](CC(C)C)NC(=O)[C@H](CC(=O)O)NC(=O)[C@H](C)NC(=O)[C@@H](N)CCCCN)C(=O)N[C@H](C(=O)N[C@@H](CCC(N)=O)C(=O)N[C@@H](Cc1c[nH]c2ccccc12)C(=O)O)[C@@H](C)O [NS5 630-646] |  |  | 3000 nM |  |  |  | 1.07 µM |  | 2590 nM |  | IC50 [2, 19]: > 20000 nM; IC50 [4, 18]: > 20000 nM; IC50 [5, 15]: > 20000 nM; IC50 [6, 21]: > 20000 nM; IC50 ([7]; read-out: Binding Affinity (nM) DRB1*0701): > 20000 nM; IC50 [8, 20]: > 20000 nM; IC50 ([9]; competitive inhibition of radiolabeled standard peptide, DRB1*0901, read-out: Binding Affinity (nM) DRB1*0901): > 20000 nM; IC50 ([11]; competitive inhibition of radiolabeled standard peptide, DRB1*1302, read-out: Binding Affinity (nM) DRB1*1302): > 20000 nM; IC50 [13]: > 20000 nM
